Assay results reported in patent US11795135B2, “Prostacyclin compounds, compositions and methods of use thereof” (Insmed Incorporated, priority 2013, dated 2023).

Key:
[1] = Particle size characterization of treprostinil compositions (QELS); assay type: physicochemical; conditions: compositions comprising the alkyl ester (Table 3), FIG. 2
CHO-K1 cells = system: CHO-K1 cells
Protocol: CHO-K1 cells were harvested when the cell monolayer was 50-90% confluent (use passage 4-11). Media was aspirated out of the flask, and cells were rinsed with 2 mL of F12 media. Next, 1 mL of pre-warmed (37° C.) 0.25% trypsin-EDTA (Life Technologies, Cat #: 25300054) was added, and cells were dislodged from the flask by tapping it on the side. Complete growth media (F12 (Life Technologies, Cat #: 31765092)+10% FBS (Hyclone, Cat #: SH30071.03)+1× Pen-Strep (Life Technologies, cat #15140-122) was then added at a volume of 10 mL. Cells were centrifuged at 250×g for 5 minutes at room temperature, and the media was aspirated. The cell pellet was resuspended in 10 mL complete growth media. Cell number was determined using a hemacytometer. Cells were then seeded at 2000 cells per well of a 96-well plate in 100 μL of complete growth media. The plate was incubated overnight at 37° C. and 5% CO2 in a water-jacketed incubator.
The next day, 80 μL of fresh complete media was added to each well, and CHO-K1 cells were challenged with treprostinil compound and composition treatments. […] Following a 48 hour incubation at 37° C. and 5% CO2 in a water-jacketed incubator, the inhibitory effect on cell proliferation was determined. Plates were analyzed using 20 μL of Presto Blue reagent (Life Technologies, cat #: A13262) per well. […]

[2] = system: Rat alveolar NR8383 cells; test: NR8383 cell proliferation assay (Presto Blue); assay type: cell-based
Protocol: Rat alveolar NR8383 cells were harvested when the monolayer was 50-90% confluent (use passage 5-11). Because the NR8383 cells include both adherent and non-adherent cells, media was transferred to a 50 mL Falcon tube. To obtain the cells remaining in the flask, 2 mL of plain media was added, and the remaining cells were scraped out of the 75 cm^2 flask with a cell scraper and added to the 50 mL tube. […] SH30071.03)+1×Pen-Strep (Life Technologies, cat #: 15410-122)). Cell number was determined using a hemacytometer. […] Measurements and calculations were made as described above for the CHO-K1 cells.

[3] = Treprostinil alkyl ester conversion to treprostinil in rat lung tissue homogenate; assay type: in vitro ADME; conditions: 37° C., 200 nM, 4 hours, 10 mg/mL of protein
Protocol: (§1) Treprostinil alkyl ester conversion to treprostinil was also measured in the presence of rat, dog and monkey lung tissue homogenate at 37° C. Here, data were calculated based on fit of exponential increase to the maximum (experiments performed in duplicate). The results of this study are provided below in Table 2A and FIG. 37. […] Both FIG. 37 experiments (left and right graphs) were performed in duplicate and the lines represent nonlinear exponential regression assuming 1 phase decay.

[4] = Treprostinil alkyl ester conversion to treprostinil in dog lung tissue homogenate; assay type: in vitro ADME; conditions: 37° C., 200 nM, 4 hours, 10 mg/mL of protein
Protocol: as §1

[5] = Treprostinil alkyl ester conversion to treprostinil in monkey lung tissue homogenate; assay type: in vitro ADME; conditions: 37° C., 200 nM, 4 hours, 10 mg/mL of protein
Protocol: as §1

treprostinil pentyl ester [Compound C5-TR]
average particle diameter [1]: 316 nm | Effect on cell proliferation, CHO-K1 Cells (0.195 μM-25 μM) (CHO-K1 cells): No detectable cell inhibition | Effect on cell proliferation, NR8383 Cells (0.195 μM-25 μM) [2]: No detectable cell inhibition

treprostinil decyl ester [Compound C10-TR]
Rate of treprostinil alkyl ester conversion [3]: 7.3 nmOL/h * g of protein | Rate of treprostinil alkyl ester conversion [4]: 10.5 nmOL/h * g of protein | Rate of treprostinil alkyl ester conversion [5]: 4.6 nmOL/h * g of protein
